Reference: US9000182B2, “2H-imidazol-4-amine compounds and their use as BACE inhibitors” (AstraZeneca AB, priority 2012, dated 2015)

Sequences of proteins named here, by UniProt entry; tags and fusion partners are left off. Residues count along the entry.
UniProt P56817, 22-460: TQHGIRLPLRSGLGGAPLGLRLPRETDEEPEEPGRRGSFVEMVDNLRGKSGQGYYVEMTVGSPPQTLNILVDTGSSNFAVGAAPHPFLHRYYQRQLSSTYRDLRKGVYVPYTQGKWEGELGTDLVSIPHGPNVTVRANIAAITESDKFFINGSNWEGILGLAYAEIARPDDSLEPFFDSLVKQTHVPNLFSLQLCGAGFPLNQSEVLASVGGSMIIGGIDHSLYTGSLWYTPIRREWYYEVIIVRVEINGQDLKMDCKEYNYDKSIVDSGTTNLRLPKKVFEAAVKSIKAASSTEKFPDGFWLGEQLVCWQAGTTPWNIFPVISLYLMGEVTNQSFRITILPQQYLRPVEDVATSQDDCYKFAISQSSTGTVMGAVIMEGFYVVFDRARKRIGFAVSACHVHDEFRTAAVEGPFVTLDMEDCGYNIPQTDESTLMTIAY

How the values were obtained:
[1] = biological target: T1, human β-Secretase (sBACE-Fc, soluble part AA 1-AA 460) (Homo sapiens (Human), UniProt P56817); assay: TR-FRET assay; assay type: biochemical; conditions: standard TR-FRET assay (values without footnote a)
Method: The β-secretase enzyme used in the TR-FRET is prepared as follows:
(§1) The enzyme (truncated form) was diluted to 6 μg/mL (stock 1.3 mg/mL) and the TruPoint BACE1 Substrate to 200 nM (stock 120 μM) in reaction buffer (NaAcetate, chaps, triton x-100, EDTA pH4.5). Enzyme and compound in dimethylsulphoxide (final DMSO concentration 5%) was mixed and pre-incubated for 10 minutes at RT. Substrate was then added and the reaction was incubated for 15 minutes at RT. The reaction was stopped with the addition of 0.35 vol Stop solution (NaAcetate, pH 9). The fluorescence of the product was measured on a Victor II plate reader with excitation wavelengths of 340-485 nm and emission wavelengths of 590-615 nm. […] The dimethylsulphoxide control, instead of test compound, defined the 100% activity level and 0% activity was defined by wells lacking enzyme (replaced with reaction buffer) or by a saturating dose of a known inhibitor, 2-amino-6-[3-(3-methoxyphenyl)phenyl]-3,6-dimethyl-5H-pyrimidin-4-one.

[2] = biological target: T1, human β-Secretase (sBACE-Fc, soluble part AA 1-AA 460); assay: Diluted TR-FRET assay; assay type: biochemical; conditions: IC50 from the diluted FRET assay (footnote a): 50 times less enzyme, 6.5 h reaction time
Method: as §1, with “The enzyme (truncated form) was diluted to 6 μg/mL (stock 1.3 mg/mL) and the TruPoint BACE1 Substrate to 200 nM (stock 120 μM) in reaction buffer (NaAcetate, chaps, triton x-100, EDTA pH4.5).” left out, “Substrate was then added and the reaction was incubated for 15 minutes at RT.” left out

| SMILES | IC50 [1] | IC50 [2] |
| --- | --- | --- |
| CO[C@H]1CC[C@]2(CC1)Cc1ccc(C#CC(C)C)cc1[C@]21N=C(C)C(N)=N1 (single isomer, unassigned; isomer 1) [9, isomer 1] | – | 1.1 nM |
| CO[C@H]1CC[C@]2(CC1)Cc1ccc(C#CC3CCC3)cc1[C@]21N=C(C)C(N)=N1 (single isomer, unassigned; isomer 1) [7, isomer 1] | – | 2.7 nM |

The next lines start with the values.

| IC50 [1] | IC50 [2] | SMILES |
| --- | --- | --- |
| 89 nM | – | CC[C@@H](C)Oc1ccc2c(c1)C1(N=C(C)C(N)=N1)[C@]1(CC[C@H](OC)CC1)C2 (some centres unmarked) [Example 18, (1r,4r)-6′-[(28)-Butan-2-yloxy]-4-methoxy-5″-methyl-3′H-dispiro[cyclohexane-1,2′-indene-1′,2″-imidazol]-4″-amine] |
| – | 4.7 nM | CO[C@H]1CC[C@]2(CC1)Cc1ccc(OCCC(F)(F)F)cc1[C@@]21N=C(C)C(N)=N1 (single isomer, unassigned; isomer 1) [11, isomer 1] |
| 1600 nM | – | CO[C@H]1CC[C@]2(CC1)Cc1ccc(OCCC(F)(F)F)cc1[C@]21N=C(C)C(N)=N1 (single isomer, unassigned; isomer 2) [11, isomer 2] |
